{"source": "patent US20230286995A1", "about": "“METABOLICALLY STABLE PYRIMIDINYL DIHYDROQUINOXALINONES AS TUBULIN POLYMERIZATION INHIBITORS” (UNIVERSITY OF TENNESSEE RESEARCH FOUNDATION, priority 2022, published 2023)", "tested_on": "A375, M14, RPMI-7951, MDA-MB-231, MDA-MB-453, MDA-MB-468, PC3 and DU145", "test": "Cell proliferation inhibition assay (MTS), paclitaxel-sensitive panel", "assay_type": "cell-based", "conditions": "Homo sapiens; read-out: average IC50 value on all cancer cell lines tested", "experimental": "Cell proliferation inhibition assay: The cell proliferation inhibitory effects of tested compounds were first determined through MTS assay as previously described. In short, 3000 to 7500 cells were added to a 96-well cell culture plate followed by the treatment of the test compounds (0.1 nM to 3 μM) in quadruplicate after seeding and overnight incubation. After 72 hours of treatment, MTS (Promega) was added to the wells and the absorbance was measured at […] after incubating for 1.5 to 2 h. […] Briefly, A375/TxR cells (1000 cells/well) were treated with growth medium containing 0.5 nM, 1 nM, or 2 nM of 5v and incubated for over 7 days (the incubation medium was changed every 3 days). After fixing and staining with 0.5% crystal violet, the cell colonies were quantified by the Hybrid Counting module of the Keyence BZ-X700 microscope. The assay was performed in triplicate."}
{"smiles": "CCNc1nc2c(c(N3CC(=O)Nc4cc(OC)ccc43)n1)CCC2", "note": "[Compound 5v, 4-(2-(ethylamino)-6,7-dihydro-5H-cyclopenta[d]pyrimidin-4-yl)-7-methoxy-3,4-dihydroquinoxalin-2(1H)-one]", "values": [{"measurement": "IC50", "value": 0.5, "unit": "nM"}]}
